Measurements from US11576859B2, “Gastric residence systems for sustained release of therapeutic agents and methods of use thereof” (Lyndra Therapeutics, Inc., priority 2015, dated 2023).
Converted amounts (≈) assume the structure as drawn.

Assay: physchem
Conditions: thermodynamic from solid

Cc1nc2n(c(=O)c1CCN1CCC(c3noc4cc(F)ccc34)CC1)CCCC2 [Risperidone]
solubility (pH 1.06, simulated gastric fluid): 9940 µg/mL (≈ 24.2 mM) | solubility (pH 3, aqueous buffer): 22800 µg/mL (≈ 55.5 mM) | solubility (pH 4.65, aqueous buffer): 40800 µg/mL (≈ 99.3 mM) | solubility (pH 6.5, aqueous buffer): 1390 µg/mL (≈ 3.39 mM) | solubility (pH 8, aqueous buffer): 190 µg/mL (≈ 0.463 mM)
